Molecular target: T1, F159W-Leuko-PNP (Homo sapiens, UniProt P00491, F159W/W16Y/W178Y/W94Y)
T1 sequence (P00491 1-289 W16Y/W94Y/F159W/W178Y): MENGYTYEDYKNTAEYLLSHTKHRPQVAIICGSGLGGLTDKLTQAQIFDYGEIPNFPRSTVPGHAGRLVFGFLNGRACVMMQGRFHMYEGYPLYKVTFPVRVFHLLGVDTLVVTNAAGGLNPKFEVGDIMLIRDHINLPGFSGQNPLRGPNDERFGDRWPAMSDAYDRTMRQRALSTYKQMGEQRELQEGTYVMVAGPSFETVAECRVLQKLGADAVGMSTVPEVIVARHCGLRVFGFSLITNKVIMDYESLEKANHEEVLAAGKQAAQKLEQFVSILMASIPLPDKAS
Settings: read-out: Ki* (slow-onset tight binding constant); 50 mM KH2PO4, pH 7.4, 25 °C; ∼8 mM inosine

The chains behind the UniProt entries cited, without tags or fusion partners. Where a name states a change or a piece, a line headed by the entry shows the natural chain unless it says otherwise.
UniProt P00491: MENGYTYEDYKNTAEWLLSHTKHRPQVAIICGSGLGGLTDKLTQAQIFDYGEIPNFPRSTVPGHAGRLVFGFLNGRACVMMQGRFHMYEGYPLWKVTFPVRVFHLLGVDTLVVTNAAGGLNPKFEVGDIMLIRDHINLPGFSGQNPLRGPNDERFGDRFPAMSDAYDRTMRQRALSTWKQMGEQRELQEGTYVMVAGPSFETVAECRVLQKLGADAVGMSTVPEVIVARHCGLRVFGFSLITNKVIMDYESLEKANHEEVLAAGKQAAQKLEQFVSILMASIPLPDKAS

## Immucillin-H [ImmH]
  Ki: 2.1 nM

## 4'-deaza-1'-aza-2'-deoxy-1'-(9-methylene)-Immucillin-H [DADMe-ImmH]
  Ki: 0.06 ± 0.002 nM

Reference: paper PMC2674222 (Biochemistry, 2009)
